For assay [1], the system named is HER-2 negative MDA-MB-231 cells. The experiment in a line: Cell growth inhibition, calcein AM live cell staining. It counts as cell-based, human. On the procedure: (§1) The effectiveness of combination treatments using PCL-CPT-TTZ nanoparticles were evaluated in HER-2 positive BT-474 breast cancer cells (ATCC) and HER-2 negative cell line MDA-MB-231 (ATCC). The cells were cultured in Hybri-Care (ATCC), and RPMI 1640 (Life Technologies), respectively supplemented with 10% FBS (Corning) and 1% (100 units/ml) Penicillin-Streptomycin (Gibco) at 37° C. and 5% CO2. HUVEC cells (Invitrogen) were used as a normal cell control that was cultured in Medium 200 (Invitrogen) with Low Serum Growth Supplement (LSGS) kit (Invitrogen). Cells were plated in 96-well tissue culture plates (Corning) at a density of 10,000 cells/well in 200 μl respective medium. After 18 hours of growth, 10 μl of nanoparticles made in Example 5 were added to the medium. The final concentrations of CPT were 0.1, 0.2, 0.5, 1, 2, 5 and 10 μg/ml. The corresponding PCL concentrations were 2.9, 5.8, 14.6, 29.1, 58.2, 145.5, and 291.1 μg/ml, respectively, and TTZ concentrations were 0.4, 0.8, 1.9, 3.8, 7.5, 18.8, and 37.7 μg/ml, respectively. CPT-PCL-BSA nanoparticles made in Example 5 were used as a HER-2 non-specific control. Cells were also treated with the same concentrations of PCL solutions to determine its cytotoxic effects. Cells treated with 10 μl of PBS were used as positive controls. 3 hours later, the medium was replaced with fresh medium. After 72 hours, the plates were centrifuged at 100 rcf for 15 min. The supernatants were discarded. Live cells were stained with 2 μM calcein AM (Life technologies) in PBS by incubating at room temperature for 30 min. The fluorescence intensity (F.I.) of calcein AM was measured using 485/528 excitation/emission filters using the plate reader (BioTek Synergy 2). The percentage inhibition in cell growth was calculated using the following equation (2): […]
(§2) The therapeutic activity of CPT-PCL-TTZ nanoparticles was evaluated in HER-2 positive BT-474 (FIG. 10) and HER-2 negative MDA-MB-231 cells (FIG. 11) at varying concentrations. These are the previously reported dosage amounts of CPT in human breast cancer cells. […]

Assay [2] concerns HER-2 positive BT-474 breast cancer cells. Described as above. The settings on record: 10 μg/ml CPT. It counts as cell-based, human. The protocol: as §1, §2

Consider one substance from patent publication US20160303053A1, “POLYMER-COATED THERAPEUTIC NANOPARTICLES” (priority 2015, published 2016).

On to “CPT-PCL-TTZ nanoparticles: CPT-PCL nanoparticles with Trastuzumab (TTZ) antibody conjugated to the surface via amide bonds”, for which the “difference in growth inhibition between CPT-PCL-BSA and CPT-PCL-TTZ nanoparticles” value in assay [1] was “No difference”. In addition, the “BT-474 cell growth inhibition” value in assay [2] (3 h exposure, read after 72 hours) was 61.6%. Also, in assay [2] (BT-474), the “cell growth inhibition relative to CPT-PCL-BSA nanoparticles” value is on record as 1.5 fold.
